Reference: patent US20180369230A1, “TARGETED SELECTION OF PATIENTS FOR TREATMENT WITH SPECIFIC CORTISTATIN DERIVATIVES” (President and Fellows of Harvard College, priority 2015, published 2018)

The chains behind the UniProt entries cited, without tags or fusion partners. Where a name states a change or a piece, a line headed by the entry shows the natural chain unless it says otherwise.
UniProt P49336: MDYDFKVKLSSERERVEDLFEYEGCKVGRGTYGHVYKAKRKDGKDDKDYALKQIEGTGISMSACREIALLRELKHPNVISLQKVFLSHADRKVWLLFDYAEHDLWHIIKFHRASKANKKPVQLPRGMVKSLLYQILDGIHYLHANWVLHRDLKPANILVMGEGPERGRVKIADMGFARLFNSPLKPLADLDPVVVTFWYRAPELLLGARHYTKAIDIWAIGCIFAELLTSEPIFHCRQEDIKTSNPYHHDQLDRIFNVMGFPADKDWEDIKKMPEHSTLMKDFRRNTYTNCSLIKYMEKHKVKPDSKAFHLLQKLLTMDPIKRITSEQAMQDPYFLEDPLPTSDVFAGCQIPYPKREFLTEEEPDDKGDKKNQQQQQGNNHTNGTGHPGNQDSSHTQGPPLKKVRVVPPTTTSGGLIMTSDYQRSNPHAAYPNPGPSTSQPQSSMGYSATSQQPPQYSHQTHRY

What was measured:
[1] = test system: native kinases in MOLM-14 cell lysate; conditions: 1000 nM
Experimental: Native kinome profiling was performed with MOLM-14 cell lysate according to the KiNativ Method by ActivX Biosciences. For each peptide quantified, the change in mass spectrometry signal for the treated samples relative to the signal for the control samples was expressed as percentage inhibition.

294 recombinant kinases = conditions: 600 nM
CDK8/Cyclin C = molecular target: T1, CDK8/Cyclin C (Homo sapiens, UniProt P49336); test: In vitro radiometric protein kinase assay; type: biochemical; conditions: 1.0 μM ATP; FIG. 8
T1 construct: purchased ProQinase GmbH

SET-2 and UKE-1 cells = test: SET-2/UKE-1 synergy assay; type: cell-based; conditions: ruxolitinib to CA 1 to 1 or 10 to 1, Fa=0.5
Experimental: SET-2 and UKE-1 cells were co-treated with constant ratios of ruxolitinib to CA, 1 to 1 or 10 to 1, in a 96-well growth assay format with a range of 2-fold dose dilutions of compounds. SET-2 and UKE-1 cells were also treated with ruxolitinib alone or CA alone in a 2-fold dilution series. The Chou-Talalay combination index values at 50% growth inhibition (Fa=0.5) were determined using CalcuSyn software (see Chou, T. C. Cancer Res. 2010 Jan. 15; 70(2):440-6) (FIG. 5).

For Cortistatin A, the “kinase selectivity, native kinase % inhibition” value [1] was “selectively inhibits CDK8/19”, the “kinase selectivity, kinase activity percent remaining” value (294 recombinant kinases) was “selectively inhibits CDK8/19” and the “inhibition of CDK8/Cyclin C kinase activity” value (CDK8/Cyclin C) was “potently inhibits”. The “synergy with JAK1/2 inhibitor ruxolitinib, inhibition of proliferation (Chou-Talalay combination index)” value (SET-2 and UKE-1 cells) was “synergizes”.
